Test system: Acar3
Type: binding, great reed warbler Acrocephalus arundinaceus
Conditions: Table S5, half-life estimated from dissociation in scintillation proximity assay

FMYSDFHFI [9-mer peptide]
Stability T½ (h), peptide - Acar3: 0.1 h
